The source of these data is ChEMBL document CHEMBL1811898, “Discovery and structure-activity relationships of modified salicylanilides as cell permeable inhibitors of poly(ADP-ribose) glycohydrolase (PARG)” (J Med Chem, 2011).

Protein sequences, listed by entry. Tags and fused reporters are not part of them.
UniProt P09874, whole entry: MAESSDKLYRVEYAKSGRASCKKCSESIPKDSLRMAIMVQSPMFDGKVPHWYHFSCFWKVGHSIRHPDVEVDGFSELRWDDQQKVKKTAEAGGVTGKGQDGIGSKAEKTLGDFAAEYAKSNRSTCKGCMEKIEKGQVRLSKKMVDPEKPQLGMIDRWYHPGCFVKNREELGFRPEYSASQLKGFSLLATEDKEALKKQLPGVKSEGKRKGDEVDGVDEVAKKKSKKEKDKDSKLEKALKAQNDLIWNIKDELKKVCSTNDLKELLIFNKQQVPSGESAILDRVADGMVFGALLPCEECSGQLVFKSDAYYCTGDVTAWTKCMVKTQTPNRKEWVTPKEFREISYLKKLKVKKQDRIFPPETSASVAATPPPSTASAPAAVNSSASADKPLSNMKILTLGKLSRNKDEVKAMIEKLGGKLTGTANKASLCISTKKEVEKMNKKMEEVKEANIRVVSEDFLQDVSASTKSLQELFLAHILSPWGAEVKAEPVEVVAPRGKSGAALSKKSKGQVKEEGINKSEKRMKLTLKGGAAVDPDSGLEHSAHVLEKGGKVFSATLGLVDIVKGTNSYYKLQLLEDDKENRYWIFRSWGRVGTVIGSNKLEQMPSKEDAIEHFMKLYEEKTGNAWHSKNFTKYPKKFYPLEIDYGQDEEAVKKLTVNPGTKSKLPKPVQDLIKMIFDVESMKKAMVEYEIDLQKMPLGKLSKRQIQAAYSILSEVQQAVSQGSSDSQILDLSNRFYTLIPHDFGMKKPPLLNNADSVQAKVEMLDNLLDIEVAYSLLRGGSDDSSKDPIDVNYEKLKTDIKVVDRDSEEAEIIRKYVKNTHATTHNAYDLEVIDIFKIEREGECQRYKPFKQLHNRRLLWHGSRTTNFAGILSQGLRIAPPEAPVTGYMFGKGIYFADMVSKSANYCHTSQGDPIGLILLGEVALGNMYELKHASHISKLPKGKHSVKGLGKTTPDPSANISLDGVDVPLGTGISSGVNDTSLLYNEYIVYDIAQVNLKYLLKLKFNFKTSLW

The target of the assay is Poly [ADP-ribose] polymerase 1 (Homo sapiens, UniProt P09874). Nature of the assay: Inhibition of PARP-1 using [32P]-NAD+ after 15 mins.

For orientation: IC50 means the midpoint of a concentration-inhibition curve. The low end stands for greater potency in that assay, the high end for weaker potency in that assay. `O=C(Nc1cc(Cl)ccc1Oc1ccc2ccccc2c1Cl)c1cc(Cl)cc(Br)c1O` came in with an IC50 of 22 µM.
